# AlphaSeq binding of Ab-14 heavy chain variants to a spike HR2 peptide

Target: peptide PDVDLGDISGINAS, taken from heptad repeat 2 (HR2) of SARS-CoV-2 spike.

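Phage display of a naive human antibody library on the peptide gave the parent. The variants were designed computationally from a first round of random CDR variants and then made and measured. Group labels follow the data file (Ctrl: baseline library sampled from a position-specific scoring matrix, with some repeated check sequences; Rand: our label for a block that the file lists under HC and that is probably the random mutants of the ten best first-round binders; En: ensemble of fine-tuned language models; GP: Gaussian process model; GPLM: also part of the Gaussian process libraries; HC: hill climbing; Gen: genetic algorithm; Gibbs: Gibbs sampling; a sequence that several methods proposed may carry one label only). AlphaSeq pools MATa yeast showing the antibodies with MATalpha yeast showing the peptide. Pairs that bind mate more often; barcode pairs of the diploids are counted by sequencing. A regression on co-assayed BCL2-family reference pairs converts the normalised counts of each replicate to an apparent Kd. There are six technical replicates.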

Parent: Ab-14, a human scFv built as VH, a (GGGGS)3 linker, VL. Only the CDRs of the heavy chain vary.
VH: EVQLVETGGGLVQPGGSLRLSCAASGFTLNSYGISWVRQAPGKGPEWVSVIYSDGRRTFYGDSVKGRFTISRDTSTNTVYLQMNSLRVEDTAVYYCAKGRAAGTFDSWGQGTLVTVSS
VL: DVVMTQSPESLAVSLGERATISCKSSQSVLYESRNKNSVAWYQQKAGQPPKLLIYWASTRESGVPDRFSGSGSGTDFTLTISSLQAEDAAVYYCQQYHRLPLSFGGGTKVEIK

Variants are written as CDR1, CDR2 and CDR3 of the heavy chain (limits as in the source). Parent: GFTLNSYGIS, VIYSDGRRTFYGDSVK, GRAAGTFDS.
The read-out is the apparent dissociation constant on a log10 scale (nM): the lower, the stronger.
Averages over replicates are reported, and they cover detected replicates only.
"not detected" means that the variant was in the library but no mating with the target was seen in any replicate; the authors take this as a sign of poor binding, and no number exists.
The range of this assay differs from that of the first round, and the authors advise against merging the two.
In the paper, a design with two or fewer of six values counts as a poor binder.
Three control strains display no target. For all heavy chain designs, 1% of the pairings with them gave a signal, with a median of 2.08 and one signal in twenty below 0.84, so weak values seen in few replicates may be background.

CDR-H1 | CDR-H2 | CDR-H3 | group | mean, log10 nM | replicates with signal
GFSLNSYGIS | VIYSDGRRTFYGDNVK | GKTAGTFDS | GP_Gen | 0.29 | 6/6
GFTLTSYGIS | VIYSDGRRTFYGDSVK | GRVAGTFDM | Ctrl | 1.17 | 6/6
GFTLNDYGIT | VIYSDGRRTFYGDSVK | GRAAGTVDS | Ctrl | not detected | 0/6
GFGVNSYGIS | VIYSDGRRTFYGDSFS | GQAAGTPDS | Ctrl | not detected | 0/6
GFYLNSYGIS | VIYSDGRRTFYDDSVK | GQTAGTFDS | GPLM_HC | not detected | 0/6
GFDLNEYGIS | VIYADGRRTAYSDSVK | GEVAGTFDS | En_HC | -0.41 | 6/6
GFNLNSYGIS | VIYSDGRRTFYIDSVK | GWVAGTFDS | GP_Gibbs | 1.39 | 5/6
GFQLNEYGIS | VIYSDGRRTFYGDSVK | GRTAGTFCS | GP_Gen | 1.58 | 1/6
GFVLNSYGIS | VIYSDGRRTFYVDSVK | GKTAGTFDT | GP_Gibbs | 1.11 | 1/6
GFDLNEYGIS | VIYADGVRTAYADSVK | GENGGTFDV | En_Gen | 0.36 | 6/6
GFDLNSYGIS | VIYSDGRRTFYGDSVK | GRGAGTFES | GP_HC | not detected | 0/6
GFTLNSYGIS | VIYADGRRTFYGDSVK | GRAAGTFHS | GP_HC | not detected | 0/6
GFDLNEYGIS | VIYADGRRTAYADSVK | GQLAGTFDI | En_HC | -0.38 | 6/6
GFDLNEYGIS | VIYADGMRTAYSDDVK | GNNAGTFDQ | En_Gen | -0.46 | 6/6
GFELDEYGIS | VIYADGKRKAYDDSVK | GFRLGVKLI | En_Gibbs | not detected | 0/6
GFSLNSYGIS | VIYSDGHRTFYGDSVK | GRVAGTFDS | GPLM_Gen | 0.65 | 6/6
GFDLNEYGIS | VIYADGQRTAYADSVK | GNVAGTFDS | En_HC | -0.87 | 6/6
GFDLNEYGIS | VIYADGRRTFYSDSVK | GNVAGTFDI | En_HC | -0.68 | 6/6
KFSLESYGIS | VIYSDGRRTFYGDSVK | GRTAGTFDS | GP_Gen | 1.43 | 2/6
GFTLNEYGIS | VTYSDGRRTFYTDSMK | VRFAGTFDS | Rand | not detected | 0/6
GKDLNEQGIS | VIYADGTRTAAANTVK | GEIAGTFKV | En_Gibbs | not detected | 0/6
GFDLNEYGIS | VIYADGMRTAYADNVK | GETAGTFDT | En_Gen | -0.52 | 6/6
GFDLNEYGIS | VIYADGQRTAYSDSVK | GNTAGTFDI | En_Gen | -0.29 | 6/6
GFDLNSYGIS | VIYSDGRRTFYDDSVK | GQAAGTFDN | GP_Gibbs | 1.57 | 5/6
TFTLNSYGIS | VIYSDGERTFYTDSVK | GRAAGTFDS | Ctrl | 2.97 | 4/6
GFDLNEYGIS | VIYADGMRTFYIDSVK | GNAAGTFDS | En_HC | -0.58 | 6/6
GFNLNEYGIS | VIYADGMRTAYADSVK | GNVAGTFDV | En_Gen | -0.30 | 6/6
GFDLDEYGIS | VIYADGMRTAYTDSVK | GNEAGTFDI | En_Gen | 1.30 | 5/6
GFTLNEYGIS | VIWSDGRRTFYGDSVK | GRAAWTFHS | Ctrl | not detected | 0/6
GFDLDEQGIS | VIYADGQRKAYADQVK | GMQGVIART | En_Gibbs | not detected | 0/6
GFVLNSQGIS | VIYSDGRRTFYGDSVK | GRAAGTFDS | Ctrl | 0.49 | 6/6
GFTLNSYGIS | VIYSDGRRVFYGDAVK | GRAAGTFDS | Ctrl | 1.72 | 5/6
GGDLNSYGIS | VIYSDGRRTFYQDSVK | GRAAGWFNS | Rand | 2.04 | 2/6
GFSLNSYGIS | VIYSDGRRTFYGDNVK | GEAAGTFDS | GPLM_Gen | not detected | 0/6
GFDLDEYGIS | VIYADGRRTFYADSVK | GNNAGTFDQ | En_HC | 0.52 | 6/6
GFSLNSYGIS | VIYSDGRRTFYGDSVK | GRAAGTFDT | Ctrl | 0.38 | 5/6
GFPLNSYGIS | VIYSDGRRTFYRDSVK | GRAAGTFDS | Ctrl | not detected | 0/6
GFDLEDYGIS | VIYADGMRTAYADSVK | GNVAGTFDQ | En_Gen | -1.08 | 6/6
GFTLNSYGIS | VIYSDGKRTFYSDSVK | GQAAGTFDA | GPLM_HC | 0.25 | 6/6
GMNIDEYGIS | VIYADGLRYHYANSVK | GEMAGTFMV | En_Gibbs | not detected | 0/6
GFELNEYGIS | VIYSDGRRTFYGDAVK | GKTAGTFDS | GP_Gen | 0.65 | 3/6
GFTLNSYGIS | VIYSDGVRTFYSDSVK | GWAAGTFDS | GP_HC | 0.73 | 2/6
GFNLDEYGIS | VIYADGRRTFYADSVK | GTLAGTFDA | En_HC | -1.08 | 6/6
GFSLNEYGIS | VIYSDGRRTFYGDSVK | GRTAGTFTS | GP_Gen | 0.48 | 6/6
GFDLDEYGIS | VIYADGRRTAYADDVK | GENAGTFDV | En_Gen | 0.20 | 6/6
GFNLNSYGIS | VIYSDGRRVFYIDSVK | GRAAGTFDS | Ctrl | 1.04 | 5/6
GEDLEEYGIS | VIYADGMRQYYANSVK | GDINDFDDL | En_Gibbs | not detected | 0/6
GVEIDEYGIS | VIYADGRRRAYADDVK | GNDIGGFDL | En_Gibbs | not detected | 0/6
GFTLNSYGIS | VIYSDGRRTFYSDSVK | GRMGGTFDT | GP_HC | 0.75 | 6/6
GFDLNEYGIS | VIYADGRRTFYTDSVK | GQIAGTFDS | En_HC | -0.01 | 4/6
GFDLDEYGIS | VIYADGMRTVYADSVK | GSNAGTFDV | En_Gen | -0.85 | 6/6
GFDIDEYGIS | VIYADGSRAVYTESVK | GHNGNLLVG | En_Gibbs | not detected | 0/6
GFDLNSYGIS | VIYSDGRRTFYADRVK | GKAAGTFDS | GP_Gen | not detected | 0/6
GNTLNSYGIS | VIYSDGSRTFYGDSVK | GRAAGTFDS | Ctrl | 2.81 | 4/6
GFELNSYGIS | VIYSDGRRTFYIDSVK | GHAAGTFDK | GP_Gen | 1.11 | 6/6
GFDLNSYGIS | VIYSDGRRTFYGDSVK | GEAAGTFDA | GP_Gen | 0.08 | 6/6
KFTLNSYGIS | VIYSDGRRTFYADSVK | GRAAGTFDS | Ctrl | 1.40 | 3/6
GFNPNSYGIS | VIYSDGRRTFYGDSVK | GRAAGTFDS | Ctrl | not detected | 0/6
GFELNSYGIS | VIYADGRRTFYGDQVK | GRAAGTFDS | GP_Gen | not detected | 0/6
GFGLNSYGIS | VIYSDGRRTFYSDSVK | GRAAGTFDS | GPLM_HC | 0.62 | 6/6
GFTLNSYGIS | VIYSDGRRTFYSDSVK | GMQAGTFDS | GP_HC | 0.42 | 6/6
DFDLNSYGIS | VIYSDGRRTFYDGSVK | GRAAGTFDS | Ctrl | 2.49 | 3/6
GFQLNEYGIS | VIYSDGRRTFYQDSVK | GQAAGTFDS | GP_Gibbs | 0.42 | 6/6
KFDLNSYGIS | VIYSDGRRTFYSDSVK | GRQAGTFDS | GP_Gen | 1.07 | 6/6
GFDLNEYGIS | VIYADGMRTAYADDVK | GTNAGTFDQ | En_Gen | -0.44 | 6/6
GFHLNSYGIS | VIYSDGRRTFYGDSVK | GRQAGTFDS | GPLM_Gibbs | 1.90 | 4/6
GFDLNEYGIS | VIYADGMRTAYADDVK | GSNAGTFDI | En_Gen | -0.84 | 6/6
GFTLNDYGIS | VITSDGRRTFYGDSVK | GTADGTFDS | Ctrl | not detected | 0/6
GFILNSYGIS | VIYSDGRRTFYGDSVK | GRAAGTFDS | Ctrl | 1.63 | 1/6
GFDLNEYGIS | VIYADGKRTAYADDVK | GNNAGTFDT | En_Gen | -0.29 | 6/6

Extract of 4 entries:

CDR-H1	CDR-H2	CDR-H3	group	mean, log10 nM	replicates with signal
GFELNSYGIS	VIYADGRRTFYGDQVK	GRAAGTFDS	GP_Gen	not detected	0/6
GFQLNEYGIS	VIYSDGRRTFYGDSVK	GRTAGTFCS	GP_Gen	1.58	1/6
GFILNSYGIS	VIYSDGRRTFYGDSVK	GRAAGTFDS	Ctrl	1.63	1/6
GFTLNSYGIS	VIYSDGRRTFYSDSVK	GMQAGTFDS	GP_HC	0.42	6/6

The measurements come from Li et al. 2023 (doi:10.1038/s41467-023-39022-2) through the FLAb antibody collection.